From ChEMBL document CHEMBL2021911 (Bioorg Med Chem Lett, 2012) come the findings set out here.

Chains of the proteins cited; added tags and fusions are not shown.
UniProt P20309, whole entry, looked up: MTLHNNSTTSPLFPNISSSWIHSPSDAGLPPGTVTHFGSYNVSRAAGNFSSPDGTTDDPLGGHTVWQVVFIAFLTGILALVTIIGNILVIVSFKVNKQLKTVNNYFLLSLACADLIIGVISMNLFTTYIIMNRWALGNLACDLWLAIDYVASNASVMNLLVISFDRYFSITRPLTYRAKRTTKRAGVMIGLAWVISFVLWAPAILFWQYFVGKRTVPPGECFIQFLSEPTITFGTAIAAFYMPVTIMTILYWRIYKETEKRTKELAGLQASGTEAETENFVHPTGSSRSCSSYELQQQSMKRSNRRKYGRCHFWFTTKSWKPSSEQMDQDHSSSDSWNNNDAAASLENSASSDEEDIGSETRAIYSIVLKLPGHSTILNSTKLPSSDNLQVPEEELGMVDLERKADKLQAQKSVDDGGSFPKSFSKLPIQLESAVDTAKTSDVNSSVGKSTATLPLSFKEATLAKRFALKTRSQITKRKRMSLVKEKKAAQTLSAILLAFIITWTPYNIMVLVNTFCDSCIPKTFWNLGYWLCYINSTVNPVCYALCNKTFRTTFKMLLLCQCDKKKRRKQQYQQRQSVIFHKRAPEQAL

The target in this assay is Muscarinic acetylcholine receptor M3 (Homo sapiens, UniProt P20309). Put plainly: Antagonist activity at human muscarinic M3 receptor by calcium mobilization assay. It is filed as functional. (In general: Calcium flux is commonly read through the fluorescence of an indicator in the cells.)

The source made the active and inactive calls. The calls are words filed in the database; no cut-off is given here.

As for `CCOC(=O)N1CCC(NCCNC(=O)c2ccccc2C)CC1`, the result was inactive. The value for `CCOC(=O)N1C2CCC1CC(N1CCC[C@@H](NC(=O)c3ccccc3)C1)C2` (mixture of isomers) was “inactive”.
